Laboratory results from paper PMC4281354, “The opioid receptor pharmacology of GSK1521498 compared to other ligands with differential effects on compulsive reward-related behaviours” (Psychopharmacology, 2014).

The chains behind the UniProt entries cited, without tags or fusion partners.
UniProt P41143, whole entry: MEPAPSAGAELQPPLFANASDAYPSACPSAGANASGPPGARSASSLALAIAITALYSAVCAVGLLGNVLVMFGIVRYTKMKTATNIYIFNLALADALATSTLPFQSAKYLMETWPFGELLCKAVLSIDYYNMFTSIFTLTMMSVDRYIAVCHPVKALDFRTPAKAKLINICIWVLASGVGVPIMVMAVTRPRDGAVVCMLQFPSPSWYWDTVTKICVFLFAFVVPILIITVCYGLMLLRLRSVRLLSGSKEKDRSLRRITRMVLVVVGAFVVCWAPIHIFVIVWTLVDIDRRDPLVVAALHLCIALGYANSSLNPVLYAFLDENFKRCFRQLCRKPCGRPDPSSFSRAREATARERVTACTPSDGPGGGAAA

Target: human DOPr (Homo sapiens, UniProt P41143)
Assay: Antagonism of Met-Enk-stimulated [35S]GTPγS binding, CHO membranes overexpressing DOPr (SPA, antagonist mode)
Type: biochemical

C=C1CC[C@@]2(O)[C@H]3Cc4ccc(O)c5c4[C@@]2(CCN3CC2CC2)[C@H]1O5 [Nalmefene, nalmefene, reference compound] was tested, and the Ki was 8.32 nM.
